Most compounds without a hit are left out; they make up all but 0.43% or so of the library.
GIV-Gai inh = GIV-Galpha-i interaction inhibition; P08753; Galpha-i3/FITC-GIV peptide fluorescence polarization, 90 min; active compounds read low; scaled: aluminum fluoride 0%, vehicle 100%; percent of control (FP), % (no concentration beside the values); 210,000 compounds, 0.42% hits; AID 1224905;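 active means replicate mean at 85% of control or lower, very high polarization wells dropped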;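 further: wells of about 15 µL received 100 nL stock; the first replicate is given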
HCMV UL50-53 inh = cytomegalovirus nuclear egress complex inhibition; HTRF UL50-UL53 interaction, normalized percent inhibition; inhibition, % (test concentration not listed); 190,000 compounds, 0.15% hits; in the data active = inhibition above about 27%, passing the limit was not always enough
Numbers without * were called inactive; x = no result given.

mol	GIV-Gai inh	HCMV UL50-53 inh
CCCCNc1cc(N2CCN(C3CCCCC3)CC2)c2noc3c2c1C(=O)c1ccccc1-3	229	-43
CCOC(=O)N1CCN(c2cc(NCCCC(=O)O)c3c4c(onc24)-c2ccccc2C3=O)CC1	-74*	-210
CCN1CCN(c2cc(NCC(=O)O)c3c4c(onc24)-c2ccccc2C3=O)CC1	108	-72
O=C(O)CCCNc1cc(N2CCCC2)c2noc3c2c1C(=O)c1ccccc1-3	111	-30
CCNc1ccc2noc3c2c1C(=O)c1ccccc1-3	-48*	-188
CCOC(=O)C1CCN(c2cc(NCC(=O)O)c3c4c(onc24)-c2ccccc2C3=O)CC1	-57*	-131
CCOC(=O)N1CCN(c2cc(NCCC(=O)O)c3c4c(onc24)-c2ccccc2C3=O)CC1	-79*	x
CCNc1cc(NCC)c2noc3c2c1C(=O)c1ccccc1-3	207	-41
O=C(NCCN1CCN(C(=O)c2cccc(C(F)(F)F)c2)CC1)c1cccc(C(F)(F)F)c1	x	6
Cc1oc(CC(C)C)cc1C(=O)Nc1ccccc1C(=O)O	99	-28

(listing goes on)
mol	GIV-Gai inh	HCMV UL50-53 inh
Cc1cc(C)n(N)c(=O)c1C(=O)O	108	-11
CC(C)NC(=O)C(C)n1c2ccccc2c2cn[nH]c(=O)c21 (stereo unspecified)	101	-15
O=C1c2ccccc2-c2onc3c(Br)cc(NCc4ccccc4)c1c23	-21*	x
Cc1cccc(Nc2cc(NCc3ccccc3)c3noc4c3c2C(=O)c2ccccc2-4)c1	109	x
CC(C)CNc1cc(N2CCCC2)c2noc3c2c1C(=O)c1ccccc1-3	133	-35
CCNc1cc(N2CCCCCC2)c2noc3c2c1C(=O)c1ccccc1-3	-20*	-69
CCOC(=O)c1c(NC(=O)c2cc(OC)c(OC)c(OC)c2)sc(C(=O)Nc2ccc(OC)cc2OC)c1C	104	-17
CCOc1ccc(NC(=O)N2CCCC(c3cccc(C(=O)NCc4ccccc4)c3)C2)cc1 (stereo unspecified)	107	-2
CCN(CC)c1ccc(/C=C(/C#N)C(=O)NC(C)C)o1	-102*	-162
CCN(CCC#N)c1ccc(/C=C(\C#N)C(=O)NC(C)C)c(C)c1	x	-77

Next part:
mol	GIV-Gai inh	HCMV UL50-53 inh
CCc1ccccc1NC(=O)c1c(NC(=O)C(C)(C)C)sc2c1CCC2	104	x
NCc1ccc2cc[nH]c(=O)c2c1	104	x
C=CCN1C(=O)/C(=C\C=C2/CCCN2C)SC1=S	-61*	-78
CN1C(=O)/C(=C/C=C2/CCCN2C)N(C)C1=S	183	-188
Cc1nc(CN2C(=O)COc3cc(S(=O)(=O)N4CCCC4)c(Cl)cc32)no1	101	x
CNc1cccc2cccc(OC)c12	x	-43
COc1ccc2cccc3c2c1C=CC3=O	-89*	-75
CC1CCCC(C)N1Cc1c(O)ccc2c3c(c(=O)oc12)CCC3 (stereo unspecified)	105	x
CCOC(=O)/C(C#N)=C/c1ccccc1	103	-76
CCOC(=O)/C(C#N)=C\c1ccc(N2CCOCC2)cc1	-45*	-50

The list goes on.
mol	GIV-Gai inh	HCMV UL50-53 inh
CN1C(=O)C(=Cc2ccc(Oc3ccc([N+](=O)[O-])cc3[N+](=O)[O-])cc2)C(=O)N(C)C1=O	93	-63
COc1ccc(/C=C2\C(=O)N(c3ccccc3)N=C2C)cc1	109	43*
CC1=NN(c2ccccc2)C(=O)/C1=C\c1ccc(N(C)C)cc1	105	-21
CC1=NN(c2ccccc2)C(=O)/C1=C\c1ccc(Oc2ccc([N+](=O)[O-])cc2[N+](=O)[O-])cc1	97	54*
COc1ccc(CCNc2nnc(-c3ccccc3)c(=O)n2C)cc1OC	100	-8
Cc1cc(NCc2cccnc2)n2nc(C(F)(F)F)c(-c3ccc(Cl)cc3)c2n1	105	10
O=c1c2ccccc2n2c(-c3ccc(F)c(F)c3)nnc2n1CCc1ccccc1	95	-7
O=c1c2ccccc2n2c(-c3ccc(Cl)cc3)nnc2n1CCc1ccccc1	100	59*
Ic1ccc(NC2=NC3(CCCCC3)Cc3ccccc32)cc1	101	x
Cc1ccc(S(=O)(=O)Nc2ccc3nncn3n2)cc1C	107	x

(further entries)
mol	GIV-Gai inh	HCMV UL50-53 inh
C=CC1=C(C(=O)O)N2C(=O)[C@H](NC(=O)C(=NO)c3csc(N)n3)[C@H]2SC1	x	-23
C=CC1=C(C(=O)O)N2C(=O)C(NC(=O)C(=NOCC(=O)O)c3csc(N)n3)C2SC1 (stereo unspecified)	x	95*
c1cc(-c2nc3cc4sc(-c5ccn[nH]5)nc4cc3s2)[nH]n1	98	-18
CN1c2cc(Cl)ccc2-c2nc(SCC(=O)NC3CCCC3)ncc2S1(=O)=O	103	75*
CN1c2cc(Cl)ccc2-c2nc(SCC(N)=O)ncc2S1(=O)=O	105	2
CCc1ccc(C2C(C#N)=C(N)Oc3cc4c(cc32)OCO4)cc1 (stereo unspecified)	104	x
N#CC1=C(N)SC(N)=C(C#N)C1c1cc2c(cc1Cl)OCO2	-0.4*	-26
CCOC(=O)C1=C(C)OC(N)=C(C#N)C1c1ccccc1C (stereo unspecified)	108	x
CC(=O)OCc1cc(C2C(C#N)=C(N)OC(N)=C2C#N)c(C)cc1C	-1.1*	x
COc1ccc(C2C(C(C)=O)=C(C)N=c3s/c(=C\c4cc(C)n(-c5ccccc5)c4C)c(=O)n32)c(OC)c1 (stereo unspecified)	142	-21

Further entries
mol	GIV-Gai inh	HCMV UL50-53 inh
CCN(CC)c1ccc(/C=c2\sc3n(c2=O)C(c2ccc(OC)cc2OC)C(C(C)=O)=C(C)N=3)c(OC)c1 (stereo unspecified)	85*	-20
CCN(CC)c1ccc(/C=C/c2cc(=O)cc(C)o2)cc1	-61*	-59
CCN(CC)c1ccc(/C=C2/SC(=O)NC2=O)cc1	182	-44
CCCCN1C(=O)C2ON(c3ccccc3)C(c3ccc(OC)cc3OC)C2C1=O (stereo unspecified)	98	-17
CC1=CC(=C2C(=O)NC(=S)NC2=O)C=C(C)N1CCc1ccccc1	98	-29
CC1=CC(=C2C(=O)NC(=O)NC2=O)C=C(C)N1c1ccccc1	-4.9*	-4
CCSc1nnc2c(n1)OC1(Nc3ccccc3-2)C(=O)Nc2ccc(Br)cc21 (stereo unspecified)	x	6
CSc1nnc2c(n1)OC1(Nc3ccccc3-2)C(=O)Nc2ccc(Cl)cc21 (stereo unspecified)	100	50*
Cn1c(=O)n(C)c2cc(SC3CCCCC3)c(NC(=O)COc3ccc(Cl)cc3)cc21	108	-36
O=C(O)CSCc1nc2ccccc2[nH]c1=O	145	52*

Record cards, as listed above. Values in the order: GIV-Gai inh | HCMV UL50-53 inh
Profile of Ic1ccc(NC2=NC3(CCCCC3)Cc3ccccc32)cc1 : 101 | x
Profile of CC(=O)OCc1cc(C2C(C#N)=C(N)OC(N)=C2C#N)c(C)cc1C : -1.1* | x
Profile of CCOC(=O)/C(C#N)=C/c1ccccc1 : 103 | -76
Profile of O=C(O)CSCc1nc2ccccc2[nH]c1=O : 145 | 52*
Profile of CCOC(=O)C1=C(C)OC(N)=C(C#N)C1c1ccccc1C (stereo unspecified) : 108 | x

Remaining list, next part
mol	GIV-Gai inh	HCMV UL50-53 inh
COC(=O)CSCc1nc2ccccc2[nH]c1=O	212	57*
COC(=O)CSc1nc2ccccc2[nH]1	100	-43
O=C(O)CSCc1nc2ccccc2[nH]1	x	-4
O=C(NCCN1CCCC1)c1nc(-c2ccc(S(=O)(=O)N3CCCCC3)cc2)no1	106	x
CCCn1nnc2cc(S(=O)(=O)N3CCCC(C(=O)N4CCN(c5ccccn5)CC4)C3)ccc21 (stereo unspecified)	102	-11
CCOC(=O)c1cc2c(cc1C(=O)OCC)[n+](CC)c(/C=C/C=C1N(CC)c3cc(Cl)c(Cl)cc3N1CC)n2CC	122	x
CC(=O)OCCCN1/C(=C\C=C\c2n(CCCOC(C)=O)c3cc(Cl)c(Cl)cc3[n+]2C)N(C)c2cc(Cl)c(Cl)cc21	60*	x
O=C(c1cnn(S(=O)(=O)c2ccccc2)c1)c1cc(Cl)ccc1O	x	-27

Compound activity as filed in PubChem BioAssay.
